## AlphaSeq binding of Ab-14 light chain variants to a spike HR2 peptide

Source: Engelhart et al. 2022 (doi:10.1038/s41597-022-01779-4), MIT Lincoln Laboratory and A-Alpha Bio; data file from the FLAb repository.

All variants were tested on one target, the spike HR2 peptide PDVDLGDISGINAS (SARS-CoV-2).

Ab-14 is the parent antibody, in scFv form: VH, then three GGGGS repeats, then VL. The heavy chain is unchanged in all variants.
VH: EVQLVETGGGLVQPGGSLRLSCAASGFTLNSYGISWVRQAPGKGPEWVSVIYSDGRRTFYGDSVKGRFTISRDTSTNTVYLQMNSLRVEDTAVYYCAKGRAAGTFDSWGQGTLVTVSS
VL: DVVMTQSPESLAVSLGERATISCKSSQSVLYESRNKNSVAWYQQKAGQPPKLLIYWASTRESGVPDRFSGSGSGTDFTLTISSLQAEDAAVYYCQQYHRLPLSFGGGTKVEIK

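The starting antibody came from a phage panning campaign against this peptide. Library AAYL50 holds single substitutions and randomly drawn double and triple substitutions in the CDRs. The assay is AlphaSeq: two haploid yeast populations carry antibody and antigen on their surface. After mating in shaken culture at 30 °C for 16 h, diploids were selected and their barcode pairs sequenced. The ratio of observed to expected reads was calibrated, replicate by replicate, on BCL2-family standards whose Kd was known from biolayer interferometry. Each pool was mated in three replicate cultures.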

Substitutions are numbered in sequence along the VL above, starting at 1 (not Kabat).
Every variant below is changed at Y97 of the VL (sequential numbering).
The read-out is the apparent dissociation constant on a log10 scale (nM): the lower, the stronger.
Replicates are averaged; those with no signal do not enter the mean.
"nd" means that the variant was in the library but no mating with the target was seen in any replicate; the authors take this as a sign of poor binding, and no number exists.
In this assay the parent's reference entry averaged 0.65; its copy inside this library read 1.68.
Three control strains display no target. For library AAYL50, 18% of the pairings with them gave a signal, with a median of 4.19 and one signal in twenty below 2.99, so weak values seen in few replicates may be background. For each scFv, signals with the empty controls are counted beside the result.

Variant S33T+Y97V+L100R showed 1.32 (3 of 3 replicates; controls 0 of 9). With S58E+T59M+Y97Q the result was 1.61 (3 of 3 replicates; controls 0 of 9). Variant N37L+V39Q+Y97W gave nd (0 of 3 replicates; controls 0 of 9). For S25Y+Y97C+L100E, the assay gave 1.23 (3 of 3 replicates; controls 1 of 9). For L30M+S62N+Y97V, the assay gave nd (0 of 3 replicates; controls 4 of 9). With K24A+Y97R+L100A the result was 2.99 (1 of 3 replicates; controls 1 of 9). Variant Y97M showed 1.35 (3 of 3 replicates; controls 2 of 9). Variant Q96L+Y97C+S103Y gave nd (0 of 3 replicates; controls 0 of 9).

With S25A+R60Y+Y97R the result was nd (0 of 3 replicates; controls 1 of 9). With Y97D+L102T+S103L the result was nd (0 of 3 replicates; controls 0 of 9). Variant S58Q+E61A+Y97G gave 1.35 (3 of 3 replicates; controls 1 of 9). Variant K24Q+A57P+Y97P gave nd (0 of 3 replicates; controls 0 of 9). With A57V+R60E+Y97G the result was 3.82 (1 of 3 replicates; controls 3 of 9). Variant R34L+Y97N+L102A showed 0.98 (3 of 3 replicates; controls 1 of 9). Variant L30P+R60G+Y97Q gave 3.71 (1 of 3 replicates; controls 2 of 9). Variant Q96F+Y97E+L100A gave 1.41 (3 of 3 replicates; controls 0 of 9).

With K36A+S58K+Y97N the result was 4.45 (1 of 3 replicates; controls 0 of 9). Variant N35C+E61V+Y97C showed 2.21 (3 of 3 replicates; controls 2 of 9). For R34K+N37L+Y97G, the assay gave 5.22 (3 of 3 replicates; controls 8 of 9). With S25G+K36D+Y97I the result was 3.20 (1 of 3 replicates; controls 0 of 9). Variant A40K+Y97H+P101L gave nd (0 of 3 replicates; controls 2 of 9). With W56C+Y97T the result was 4.05 (1 of 3 replicates; controls 4 of 9). With N35R+W56M+Y97S the result was 2.78 (3 of 3 replicates; controls 2 of 9). Variant K36F+A57E+Y97P showed 4.94 (1 of 3 replicates; controls 1 of 9).

Variant Y97W gave 5.14 (1 of 3 replicates; controls 3 of 9). For A57W+Y97M+R99H, the assay gave nd (0 of 3 replicates; controls 0 of 9). Variant Y31Q+R60G+Y97P gave nd (0 of 3 replicates; controls 2 of 9). For T59D+Y97E+L100N, the assay gave 2.31 (3 of 3 replicates; controls 0 of 9). Variant R60F+Q96D+Y97S gave nd (0 of 3 replicates; controls 1 of 9). With S58D+S62Y+Y97H the result was 0.17 (3 of 3 replicates; controls 0 of 9). For V29Q+Y97C+P101G, the assay gave 3.79 (2 of 3 replicates; controls 0 of 9). Variant V39H+Y97A+H98A gave nd (0 of 3 replicates; controls 2 of 9).

For N35F+Q96A+Y97K, the assay gave 4.26 (3 of 3 replicates; controls 2 of 9). With S25P+Y97P the result was 4.68 (1 of 3 replicates; controls 3 of 9). Variant R34T+A40P+Y97D gave nd (0 of 3 replicates; controls 0 of 9). Variant S33T+Y97M+R99D showed 3.23 (2 of 3 replicates; controls 1 of 9). With Y31N+S62G+Y97W the result was 2.26 (3 of 3 replicates; controls 0 of 9). Variant N37R+V39P+Y97P showed nd (0 of 3 replicates; controls 0 of 9). Variant S26F+R34A+Y97D showed nd (0 of 3 replicates; controls 2 of 9). Variant N35A+Y97L gave 2.73 (3 of 3 replicates; controls 4 of 9).

With L30I+Y97W+L100A the result was 4.43 (1 of 3 replicates; controls 2 of 9). With V39G+S62C+Y97E the result was nd (0 of 3 replicates; controls 0 of 9). Variant V39Q+T59D+Y97G gave nd (0 of 3 replicates; controls 1 of 9). With Y97G the result was 2.48 (3 of 3 replicates; controls 8 of 9). With R60K+Q96V+Y97S the result was nd (0 of 3 replicates; controls 0 of 9). For S28V+Y97R+R99K, the assay gave 5.29 (1 of 3 replicates; controls 0 of 9). Variant V39H+S58Y+Y97I showed nd (0 of 3 replicates; controls 0 of 9). With Q27H+A40G+Y97V the result was 3.79 (1 of 3 replicates; controls 1 of 9).

Variant T59D+Q95W+Y97I gave 1.73 (3 of 3 replicates; controls 1 of 9). With S25M+Q27F+Y97T the result was 5.00 (2 of 3 replicates; controls 6 of 9).

The first 6 variants above that were never detected:

{"changes": "N37L+V39Q+Y97W", "mean, log10 nM": "nd", "replicates with signal": "0 of 3", "control signals": "0 of 9"}
{"changes": "L30M+S62N+Y97V", "mean, log10 nM": "nd", "replicates with signal": "0 of 3", "control signals": "4 of 9"}
{"changes": "Q96L+Y97C+S103Y", "mean, log10 nM": "nd", "replicates with signal": "0 of 3", "control signals": "0 of 9"}
{"changes": "S25A+R60Y+Y97R", "mean, log10 nM": "nd", "replicates with signal": "0 of 3", "control signals": "1 of 9"}
{"changes": "Y97D+L102T+S103L", "mean, log10 nM": "nd", "replicates with signal": "0 of 3", "control signals": "0 of 9"}
{"changes": "K24Q+A57P+Y97P", "mean, log10 nM": "nd", "replicates with signal": "0 of 3", "control signals": "0 of 9"}